This note sets out measurements from patent US20090175981A1, “COMPOSITIONS, METHODS AND USES FOR A NOVEL FAMILY OF PEPTIDES” (priority 2004, published 2009).

Where two headings read alike, the source gives them in different places.

For one series, the system named is aminopeptidase M. In words: Degradation by aminopeptidase M.
For series [1] the following is noted: mouse, in vivo.
For series [2] the following is noted: in vivo.

With “Me2Bmt-L-dO-I-V-V-dK-V-dL-K-dY-L-V-CH2OH [BT1583]”, the digestion by enzymes result with enzymes is “no known enzymes can digest it”. Further, the “degradation by aminopeptidase M” value in the series with aminopeptidase M is recorded as “resistant”. The “digestion in the GI track” value in series [1] is “not digested”. Also, in series [2], the “absorption by the chicken GI track” value is reported as “no or very little absorption” and the “digestion in the GI track” value is reported as “not digested”.
